Test results from patent US11786548B2, “Trace element compositions, methods of making and use” (priority 2020, dated 2023).

Assay: Stability study of injectable trace element composition in parenteral nutrition admixtures (assay test for zinc, copper, selenium, manganese)
Type: physicochemical
Conditions: acceptance criteria 90.0-110.0%
Text: In order to establish stability data for parenteral nutrition admixed with the injectable compositions of trace elements, we conducted a stability study of injectable trace element composition (trace elements injectable composition, USP) in parenteral nutrition admixtures (assay test); a pH study of parenteral nutrition (PN) admixtures upon addition of injectable trace element composition (trace elements injectable composition, USP); a compatibility study of injectable trace element composition (trace elements injectable composition, USP) in parenteral nutrition admixtures; and a reduced inoculation antimicrobial effectiveness study for injectable trace element composition (trace elements injectable composition, USP) in parenteral nutrition admixtures. […]

[1] = Injectable trace element composition in CLINIMIX solution stored at 2° C. to 8° C.
[2] = Injectable trace element composition in KABIVEN solution stored at 2° C. to 8° C.

manganese sulfate monohydrate
Assay Day 0 [1]: 105.0%
Assay Day 5 [1]: 97.2%
Assay Day 7 [1]: 98.9%
Assay Day 10 [1]: 101.6%
Assay Day 14 [1]: 106.8%
Assay Day 0 [2]: 100.7%
Assay Day 5 [2]: 95.0%
Assay Day 7 [2]: 92.1%
Assay Day 10 [2]: 102.5%
Assay Day 14 [2]: 97.9%
